Test results: publication PMC3796951 (Psychopharmacology, 2012)

By UniProt entry, the sequences of proteins in these tests, tags left out. Where a name states a change or a piece, a line headed by the entry shows the natural chain unless it says otherwise.
UniProt P50406, whole entry: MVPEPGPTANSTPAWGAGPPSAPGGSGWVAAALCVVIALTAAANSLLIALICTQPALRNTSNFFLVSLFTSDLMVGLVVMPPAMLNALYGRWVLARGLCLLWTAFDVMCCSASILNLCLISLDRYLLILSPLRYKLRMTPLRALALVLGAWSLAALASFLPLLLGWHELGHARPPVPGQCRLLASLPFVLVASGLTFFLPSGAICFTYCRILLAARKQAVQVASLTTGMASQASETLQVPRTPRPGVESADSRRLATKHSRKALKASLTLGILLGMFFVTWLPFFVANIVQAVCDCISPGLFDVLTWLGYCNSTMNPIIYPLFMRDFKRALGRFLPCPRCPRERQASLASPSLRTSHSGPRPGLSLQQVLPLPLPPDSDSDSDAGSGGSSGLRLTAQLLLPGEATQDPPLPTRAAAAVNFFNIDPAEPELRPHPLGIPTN
UniProt P28221: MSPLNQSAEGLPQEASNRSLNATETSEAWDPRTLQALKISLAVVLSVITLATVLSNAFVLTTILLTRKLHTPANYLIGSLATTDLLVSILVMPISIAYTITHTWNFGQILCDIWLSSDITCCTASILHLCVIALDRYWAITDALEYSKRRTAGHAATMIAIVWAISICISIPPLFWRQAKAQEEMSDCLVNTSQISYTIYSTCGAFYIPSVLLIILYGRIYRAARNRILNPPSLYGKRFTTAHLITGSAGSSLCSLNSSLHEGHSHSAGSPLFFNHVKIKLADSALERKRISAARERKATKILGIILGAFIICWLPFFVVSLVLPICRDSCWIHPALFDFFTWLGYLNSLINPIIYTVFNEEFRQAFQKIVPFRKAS

Assays:
5-HT2C = target: T1, 5-HT2C (Rattus norvegicus, UniProt P08909); assay: Radioligand binding
T1 sequence (P08909 33-460): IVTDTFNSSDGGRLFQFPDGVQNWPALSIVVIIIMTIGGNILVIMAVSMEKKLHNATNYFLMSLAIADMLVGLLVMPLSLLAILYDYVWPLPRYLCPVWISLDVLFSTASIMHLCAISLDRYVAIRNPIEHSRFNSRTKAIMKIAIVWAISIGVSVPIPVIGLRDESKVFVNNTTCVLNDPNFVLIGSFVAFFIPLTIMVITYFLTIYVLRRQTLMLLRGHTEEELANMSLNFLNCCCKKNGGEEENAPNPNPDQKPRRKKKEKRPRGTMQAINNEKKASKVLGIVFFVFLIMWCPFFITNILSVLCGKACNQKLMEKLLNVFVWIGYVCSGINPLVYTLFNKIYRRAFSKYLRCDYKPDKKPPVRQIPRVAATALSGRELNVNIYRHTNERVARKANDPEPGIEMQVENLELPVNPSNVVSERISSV

5-HT6 = 5-HT6 (Homo sapiens, UniProt P50406); assay: Radioligand binding
5-HT1D = 5-HT1D (Homo sapiens, UniProt P28221); assay: biochemical

Compound: COc1ccc2[nH]cc(CCN(C)C)c2c1.O=C(O)C(=O)O [5-MeO-DMT, 5-Methoxy-N, N-dimethyltryptamine oxalate]
- Ki (5-HT2C): 418 nM
- Ki (5-HT6): 6.5 nM
- Ki (5-HT1D): 2.3 nM
